Chains of the proteins cited; added tags and fusions are not shown.
UniProt P50613, whole entry: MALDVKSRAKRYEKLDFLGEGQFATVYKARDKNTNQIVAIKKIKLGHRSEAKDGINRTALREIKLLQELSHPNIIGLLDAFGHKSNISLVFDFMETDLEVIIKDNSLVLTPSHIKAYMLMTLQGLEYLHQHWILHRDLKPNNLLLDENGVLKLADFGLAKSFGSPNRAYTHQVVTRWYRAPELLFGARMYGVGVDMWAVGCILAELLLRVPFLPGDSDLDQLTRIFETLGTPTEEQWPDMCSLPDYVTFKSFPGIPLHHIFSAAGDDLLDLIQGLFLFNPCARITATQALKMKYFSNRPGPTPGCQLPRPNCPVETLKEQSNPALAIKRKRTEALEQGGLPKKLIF
UniProt P51946, whole entry partner: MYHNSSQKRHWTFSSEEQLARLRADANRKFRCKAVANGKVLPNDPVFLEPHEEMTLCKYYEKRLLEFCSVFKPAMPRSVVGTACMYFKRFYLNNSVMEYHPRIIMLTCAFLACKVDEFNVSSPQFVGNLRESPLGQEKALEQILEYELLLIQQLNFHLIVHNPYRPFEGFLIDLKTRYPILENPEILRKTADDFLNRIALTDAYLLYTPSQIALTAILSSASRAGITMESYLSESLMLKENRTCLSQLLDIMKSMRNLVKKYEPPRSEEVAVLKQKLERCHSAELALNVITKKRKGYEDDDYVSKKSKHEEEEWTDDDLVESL
UniProt P51948, whole entry partner: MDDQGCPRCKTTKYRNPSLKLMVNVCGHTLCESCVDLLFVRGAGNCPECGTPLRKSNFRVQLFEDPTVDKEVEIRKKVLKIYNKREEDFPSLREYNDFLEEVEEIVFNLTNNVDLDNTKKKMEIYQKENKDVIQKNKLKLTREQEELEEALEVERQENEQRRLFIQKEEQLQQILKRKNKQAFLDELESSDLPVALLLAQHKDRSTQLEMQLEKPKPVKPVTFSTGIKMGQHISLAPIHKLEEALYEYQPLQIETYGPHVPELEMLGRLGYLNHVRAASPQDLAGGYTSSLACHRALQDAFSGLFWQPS

In article PMC13626057, “Sensitizing tumor response to topoisomerase I antibody-drug conjugate by selective CDK7 inhibition” (Science Advances, 2026):

Target: recombinant human CDK7/cyclin H/MNAT1 (Homo sapiens, UniProt P50613)
Assay: LANCE Ultra TR-FRET CDK7 kinase assay (cell-free enzymatic assay)
Conditions: read-out: IC50 against CDK7, eight-point dilution, top 3000 nM

SMILES | IC50 [nM]
CC(C)c1cnn2c(NCc3ccccc3-c3nccc4cc(N)ccc34)nc(NC[C@H]3CCNC[C@@H]3O)nc12 | 5.51
CC(F)C(=O)Nc1ccc2c(-c3ccccc3CNc3nc(NC[C@H]4CCNC[C@@H]4O)nc4c(C(C)C)cnn34)nccc2c1 (some centres unmarked) | 10
